These results are taken from patent US20100305068A1, “COMPOUNDS AND METHODS FOR MODULATING PROTEIN TRAFFICKING” (priority 2006, published 2010).

The assay deals with pdr5 ypt1^ts cells. The assay is classed as cell-based, yeast. To be noted: Table 2; 6.25 μM compound; 37° C.; background (0 μM) 0.058.

Turning to NIMODIPINE [reference compound], the “optical density, ypt1-ts, 6.25” value is 0.116.
